Measurements: patent publication US20240209028A1, “CNP COMPOUNDS” (priority 2022, published 2024)

Assays:
[1] = PK after i.v. and s.c. administration to Göttingen minipig; settings: female, in vivo, Göttingen Minipig
Description: (§1) The purpose of this study was to investigate pharmacokinetic and pharmacodynamic properties after intravenous (i.v.) and subcutaneous (s.c.) administration to Gottingen Minipig and domestic LYD pig, and to estimate bioavailability after s.c. dosing. Quantitative plasma analysis of CNP and cGMP levels were performed as described in
(§2) Animals and dosing: The pharmacokinetic and pharmacodynamic studies in Gottingen Minipig or domestic LYD pig were conducted at CRO Minerva Imaging or Novo Nordisk A/S, respectively. CNP compounds were dosed to normal female 1) Gottingen minipigs 6-12 months of age with an average weight of 22 kg or 2) domestic LYD pigs 4-5 months of age with and average weight of 80 kg. At least one week prior to dosing, permanent central venous catheters were implanted for blood sampling and intravenous (i.v.) dosing. For subcutaneous (s.c.) dosing, the pigs were ultrasound scanned and the optimal injection area laterally on the neck marked by a permanent tattoo. An insulin pen (NovoPen Echo or NovoPen 4) and insulin needle (NovoFine 32G/4 mm or NovoTwist 32G/5 mm) were used for accurate deposition of the CNP formulations in the subcutaneous fat tissue with the needle perpendicular to the skin.
(§3) CNP compounds were formulated according to the principles in General Methods of Preparation—Method G and were either A) 8 mM sodium phosphate, 250 mM glycerol, pH 6.5, B) 5 mM sodium acetate, 250 mM glycerol, pH 4.0, C) 5 mM sodium acetate, 240 mM propylene glycol, pH=4.0, D) 8 mM sodium phosphate, 250 mM glycerol, pH 7.5 or E) 20 mM sodium phosphate, 223 mM propylene glycol, pH 6.0.
(§4) Intravenously, the CNP compounds were dosed at 30-60 nmol/kg to Minipig and 15-43 nmol/kg to domestic pig using formulations A-E. Subcutaneously, the CNP compounds were dosed at 55-62 nmol/kg to Minipig and 20-30 nmol/kg to domestic pig using formulations A-D.
(§5) Sampling: Blood samples of approximately 1 mL were collected pre dose and up to 14 days post dose into EDTA-coated tubes (8 mM) for cGMP and CNP compound analysis by LC-MS. In few instances, cGMP was only analysed up to 48 hours post dose after intravenous dosing in domestic LYD pig. The blood samples were kept on wet ice for maximum 30 minutes until centrifugation for 10 minutes at 4° C. and minimum 1500G, and the plasma samples were stored at −20° C. until analysis.
Plasma concentration-time profiles were analyzed by non-compartmental PK analysis using Phoenix WinNonlin 8.1, Pharsight Inc., Mountain View, CA, USA. Calculation of the area under the plasma concentration-time curve (AUC) was based on the “linear up log down” method, and uniform weighting was used for estimation of the terminal rate constant (λz). S.c. bioavailability (F) was calculated as the dose-normalized AUC (AUC/dose) after s.c. administration divided by the AUC/dose after i.v. administration. […]

[2] = PK after i.v. and s.c. administration to domestic LYD pig; settings: female, in vivo
Description: as §1, §2, §3, §4, §5
Plasma concentration-time profiles were analyzed by non-compartmental PK analysis using Phoenix WinNonlin 8.1, Pharsight Inc., Mountain View, CA, USA. […] S.c. bioavailability (F) was calculated as the dose-normalized AUC (AUC/dose) after s.c. administration divided by the AUC/dose after i.v. administration. […]

[3] = sc, s.c. bioavailability, read-out: F (%), Subcutaneous PK

SMILES: CCCC[C@@H]1NC(=O)[C@H](CO)NC(=O)CNC(=O)[C@H]([C@@H](C)CC)NC(=O)[C@H](CCCNC(=N)N)NC(=O)[C@H](CC(=O)O)NC(=O)[C@H](CC(C)C)NC(=O)[C@H](CCCCN)NC(=O)[C@H](CC(C)C)NC(=O)CNC(=O)[C@H](Cc2ccccc2)NC(=O)[C@@H](NC(=O)CNC(=O)[C@H](CCCCN)NC(=O)[C@H](CO)NC(=O)[C@H](CC(C)C)NC(=O)CNC(=O)[C@H](CCCCN)NC(=O)[C@H](CCCCN)NC(=O)[C@H](CCC(N)=O)NC(=O)[C@H](C)NC(=O)CNC(=O)[C@H](CCCCN)NC(=O)[C@H](Cc2ccc(O)cc2)NC(=O)[C@H](CCCCN)NC(=O)[C@H](CCCNC(=N)N)NC(=O)[C@H](C)NC(=O)[C@H](CCC(N)=O)NC(=O)COCCOCCNC(=O)COCCOCCNC(=O)CC[C@H](NC(=O)CCCCCCCCCCCCCCCCC(=O)O)C(=O)O)CSSC[C@@H](C(=O)O)NC(=O)CNC(=O)[C@H](CC(C)C)NC(=O)CNC(=O)[C@H](CO)NC1=O [Compound 0312]
- clearance ([1]; iv, i.v., read-out: CL (ml/hr/kg), Intravenous PK (converted)): 0.927 mL/h/kg
- half-life ([1]; iv, i.v., read-out: T½, iv (converted)): 71 h
- bioavailability [1, 3]: 10%
- half-life ([1]; sc, s.c., read-out: T½, sc (converted)): 36 h
- clearance ([2]; iv, read-out: CL (ml/hr/kg), Intravenous PK (converted)): 1.6 mL/h/kg
- half-life ([2]; iv, read-out: T½, iv (converted)): 32 h
- half-life ([2]; sc, read-out: T½, sc (converted)): 29 h
- bioavailability [2, 3]: 11%
